One substance from patent publication US4753984A (priority 1985, dated 1988) can be followed below.

Data set [1] in a line: Localization of radiolabelled Daunorubicin drugs in organs of 3 LL tumor-bearing mice. To be noted: i.v. 100 micrograms Daunorubicin equivalent, 48 or 72 hours after injection. The protocol:
The radiolabelled Daunorubicin drugs (14-^14 C) are injected intravenously 14 days after implantation of 10^5 3 LL cells. Either 100 micrograms of free Daunorubicin (5×10^5 cpm), or 100 micrograms of Daunorubicin in macromolecular form (5×10^5 cpm) is injected. Localization is measured after the intravenous injection of various products.
The mice are sacrificed by cervical elongation 48 hours or 72 hours after injection. The organs are removed, dissolved by a tissue solubilizing agent (NCS Amersham) at a rate of 200 mg to 300 mg of organ/ml of solubilizing agent, then counted in a liquid scintillant. […] The results are recapitulated in FIG. 3.

For data set [2] the following is noted: mouse.

“polycarboxylated linear polymer of 2-N-acryloylamino-2-hydroxymethyl-1,3-propanediol substituted by the -Gly-Gly-L-Tyr-L-Leu-Daunorubicin sequence [Example 2]”: the “radioactivity of the spleen” value in data set [1] is given as “weak radioactivity”. In data set [1] (FIG. 3), the “persistence of the Daunorubicin in the organism (organ radioactivity)” value was “general persistence of the Daunorubicin in the organism”. For the same substance, the “form of the radioactive material in the plasma (thin layer silica chromatography)” value in data set [2] (after intraperitoneal injection) is reported as “also found in macromolecular form”. Further, the “form of the radioactive material in the plasma (thin layer chromatography)” value in data set [2] (after intravenous injection) is “always present in macromolecular form”. In data set [2] (at the end of 48 hours, 3 mg polymer (100 micrograms Daunorubicin), FIG. 2), the “initial radioactivity found in plasma” value was determined as 20%. Besides, in data set [2] (in vivo plasma), the “resistance of the tetrapeptide between polymer and drug to seric proteases” value is “relatively resistant to seric proteases”.
